# Source: ChEMBL document CHEMBL4145565, “Prolyl Hydroxylase Inhibitors: A Breakthrough in the Therapy of Anemia Associated with Chronic Diseases” (J Med Chem, 2018)
# By UniProt entry, the sequences of proteins in these tests, tags left out. Where a name states a change or a piece, a line headed by the entry shows the natural chain unless it says otherwise.
# UniProt Q9GZT9: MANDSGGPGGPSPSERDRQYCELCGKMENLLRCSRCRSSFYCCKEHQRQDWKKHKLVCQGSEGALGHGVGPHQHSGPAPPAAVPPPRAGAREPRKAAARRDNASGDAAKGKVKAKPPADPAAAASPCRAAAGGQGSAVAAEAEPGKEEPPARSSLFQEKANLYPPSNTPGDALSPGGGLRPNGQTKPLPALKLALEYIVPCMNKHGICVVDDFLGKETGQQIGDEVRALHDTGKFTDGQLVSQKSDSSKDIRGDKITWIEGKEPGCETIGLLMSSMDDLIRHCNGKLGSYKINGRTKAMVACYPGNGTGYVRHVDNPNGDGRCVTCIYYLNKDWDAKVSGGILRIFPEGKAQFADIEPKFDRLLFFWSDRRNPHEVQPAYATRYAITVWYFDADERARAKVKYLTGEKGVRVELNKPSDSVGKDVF
# Biological target: Egl nine homolog 1 (Homo sapiens, UniProt Q9GZT9)
# Experiment: Inhibition of HIF-PHD2 (unknown origin) by fluorescence polarization assay
smiles,measurement,value
O=C(O)CNC(=O)c1ncc(-c2cccc(Cl)c2)cc1O,IC50,13.7 µM
